Screens: PubChem BioAssay, National Center for Advancing Translational Sciences (NCATS)
Most compounds without a hit are left out; they make up all but 0.62% or so of the library.
Epigenetic reg – regulators of epigenetic silencing causing reporter derepression in mouse cells; murine LDR cells, GFP reporter derepression, 30 h; Potency, µM (series often up to 53.9 µM), actives largely listed as activators; 280,000 compounds, 0.2% hits; also: nearly all actives have a fitted effect of over 60% in size
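GFP-positive cell count by laser-scanning cytometry (objects 20–120 um) after 30 h, 37 C compound exposure of murine LDR cells; reporter is CMV-GFP integrated at a silenced locus, inducible by HDAC or DNMT inhibitors.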
miR-21 reporter – miR-21 reporter, rising signal; HeLa miR-21 FLuc reporter, luciferase, 48 h; Potency, µM (doses to about 38.3 µM); 340,000 tested, under 10 active; AID 2288; active = well fitted rising curve with a large enough effect; inconclusive = small, poorly fitted or top-dose-only effect; inactive = no such curve, though single readings can be large or run the other way;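 further: miR-21 action dims this reporter so a rising signal means less miR-21 action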
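Compounds were titrated across several concentrations (up to approximately 40 uM) and incubated 48 hours with HeLa miR-21-FLuc reporter cells (miR-21 target sequence downstream of FLuc, endogenous miR-21). Readout was firefly luciferase luminescence after lytic detection reagent.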
uPA surface inh – blocks generation of uPA at the cell surface | cell surface uPA generation assay, qHTS | Potency, µM (top dose mostly 38.3 µM), hits mostly inhibitors | 330,000 compounds, 0.31% hits | AID 540303; active = well fitted inhibition curve with a large enough effect; inconclusive = small, poorly fitted or top-dose-only effect; inactive = no such curve, though single readings can be large or run the other way; tested in mouse RAW 264.7 cells; also: nearly all actives have a fitted effect of over 55% in size
PINK1 modulator – modulators of PINK1 expression. PINK1 immunofluorescence, high-content cytometry, 24 h. AID 624263. Potency, µM (series often up to 76.6 µM), most hits filed as activators. 410,000 compounds, 0.2% hits; active = well fitted activation curve with a large enough effect; inconclusive = small, poorly fitted or top-dose-only effect; cell line not stated here; also: nearly all actives have a fitted effect of over 65% in size
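Compound titrations (5 concentrations, 24 h) on a stable cell line; DMSO and CCCP controls. Endpoint: fixed-cell PINK1 immunofluorescence with mitochondrial, cell and nuclear markers, scanned by microplate cytometer.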
p53 reactivator – restores transcriptional activity of mutant p53 | H1299 p53-A138V BP100-luciferase reporter, luminescence, 24 h | Potency, µM (top dose mostly 92.2 µM), most hits filed as activators | 320,000 compounds, 0.063% hits | AID 504706; also: nearly all actives have a fitted effect of over 45% in size
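H1299 (p53-null), stable ts p53-A138V + BP100-Luc; 1000 cells/well, Opti-MEM/10% FBS; cpd 4 pt, 1:5; 24 h, 37 deg C, 5% CO2; detection reagent 10 min RT; luminescence.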
IL2 activator – activators of IL-2. IL-2 activation reporter assay, cell-based qHTS; stimulated with anti-CD3/CD4/CD28 beads; in transgenic mouse T cells. activation, % (series mostly up to about 46 µM). 360,000 compounds, 0.065% hits. AID 652025; in the data active = activation above about 50%; inconclusive = mostly about 30% to 49%
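Readout: EGFP and DsRed signals by fluorescent plate cytometry. Unstimulated transgenic mouse T cells received compound 60 min before antibody-bead stimulation, then incubated 18 h at 37 degrees C.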
Parental c127i – parental c127i cell effect of epigenetic modulator hits; shares compounds with Epigenetic reg; Potency, µM, usual class: activators; 60 compounds, 20% hits; mouse c127i parental cells, fluorescent cell count, 30 h
HCC4017 viab – epigenetic modulators: cytotoxicity in HCC4017 lung cancer cells | shares compounds with Epigenetic reg | HCC4017 NSCLC viability, CellTiter-Glo ATP luminescence, 72 h | Potency, µM (doses to about 46.1 µM), usual class: cytotoxic | 45 compounds, 30% hits
H358 tox – H358 cytotoxicity of epigenetic modulator hits; shares compounds with Epigenetic reg; H358 NSCLC viability, ATP luminescence, 72 h; Potency, µM (doses to about 46.1 µM), most hits filed as cytotoxic; 45 compounds, 30% hits; AID 493074
Of the large screens only hits and unclear results are named; the others gave an inactive call (follow-up assays come after a bar, where they were run). Unless noted, calls follow the shape of the dose curve; as a rule, active = well fitted curve in the direction sought with a large enough effect; inconclusive = small, poorly fitted or top-dose-only effect, or another doubt; inactive = no such curve, though single readings can be large; an effect the other way counts as inactive or inconclusive.

COCCN1CCn2c(nc3cc(NC(=O)NC4CCCCC4)ccc32)C1	none
O=C(Nc1ccc2c(c1)nc1n2CCN(Cc2ccccc2)C1)NC1CCCCC1	PINK1 modulator 10µM
Cc1c(C(=O)NCCCN2CCCC2=O)cnn1-c1ncc2c(n1)-c1ccccc1CC2	none (no result: Epigenetic reg, miR-21 reporter, uPA surface inh, p53 reactivator, IL2 activator)
COc1ccc2c(C)nc(Nc3nc(-c4ccccc4)cc(=O)[nH]3)nc2c1	Epigenetic reg 3.55µM | Parental c127i inactive | HCC4017 viab 8.88µM | H358 tox 4.45µM
O=c1c[n+]([O-])c2ccccc2n1OCc1ccccn1	Epigenetic reg inconclusive
CCOn1c(=O)c[n+]([O-])c2ccccc21	Epigenetic reg 10µM | Parental c127i inactive | HCC4017 viab inactive | H358 tox inactive
CC(=O)N1c2ccc(S(=O)(=O)NCC3CCC(C(=O)Nc4ccc(F)cc4)CC3)cc2CC1C (stereo not drawn)	none (no result: uPA surface inh, p53 reactivator, IL2 activator)
CCc1ccc(NC(=O)C2CCC(CNS(=O)(=O)c3ccc4c(c3)CC(C)N4C(C)=O)CC2)cc1 (stereo not drawn)	Epigenetic reg inconclusive (no result: uPA surface inh, p53 reactivator, IL2 activator) | Parental c127i inactive | HCC4017 viab inconclusive | H358 tox inactive
Oc1[nH]c2ccccc2c1N=Nc1ccccn1	none (no result: Epigenetic reg, miR-21 reporter, p53 reactivator)
Oc1c(N=Nc2ccccn2)ccc2ccccc12	Epigenetic reg 10µM | Parental c127i inactive | HCC4017 viab 1.99µM | H358 tox 1.25µM
Cc1nc(CSc2nsc(/C=C/N(C)C)c2C#N)cs1	Epigenetic reg 6.31µM | Parental c127i inactive
Cc1c(C(=O)N(CCO)C(C)C)cnn1-c1ncc2c(n1)-c1ccccc1CCC2	none (no result: Epigenetic reg, miR-21 reporter, uPA surface inh, p53 reactivator, IL2 activator)
O=C(N/N=C/c1ccccn1)c1cc(-c2ccc(Cl)cc2)nc2ccccc12	Epigenetic reg 5.01µM, p53 reactivator inconclusive | Parental c127i inactive | HCC4017 viab inconclusive | H358 tox inconclusive
O=C(N/N=C/c1ccccn1)c1cc(-c2ccc(Br)cc2)nc2ccccc12	Epigenetic reg inconclusive, p53 reactivator inconclusive
CN(C)CCCCNC(=O)c1ccc(-n2c(=O)c(=O)[nH]c3ccccc32)cc1	none (no result: miR-21 reporter, uPA surface inh, PINK1 modulator, p53 reactivator, IL2 activator)
N#CC1=C(N)n2c(s/c(=C\c3cccs3)c2=O)=C(C#N)C1c1cccs1 (stereo not drawn)	Epigenetic reg 10µM, PINK1 modulator inconclusive | Parental c127i 14.1µM
O=C(Cn1c(=O)n(Cc2ccc(F)cc2)c(=O)c2sc3ccccc3c21)Nc1ccc(F)cc1F	Epigenetic reg inconclusive (no result: uPA surface inh, p53 reactivator, IL2 activator) | Parental c127i inactive
Nc1c(Br)cc(/C=C/c2ccnc3ccccc23)cc1Br	none (no result: Epigenetic reg, miR-21 reporter, uPA surface inh, p53 reactivator, IL2 activator)
CC1=NN(c2nc3ccccc3[nH]2)C(=O)C1Cc1ccccc1 (stereo not drawn)	Epigenetic reg inconclusive, miR-21 reporter inconclusive, PINK1 modulator inconclusive, p53 reactivator inconclusive | Parental c127i inactive | HCC4017 viab 4.45µM | H358 tox 7.91µM
CN(C)S(=O)(=O)c1cccc(NC(=S)N/N=C/c2ccco2)c1	Epigenetic reg 3.55µM | Parental c127i inactive | HCC4017 viab inactive | H358 tox inactive
CC(O)(c1ccccc1)[N+]1(CC(=O)c2ccccc2)C=CC=C1 (stereo not drawn)	none (no result: Epigenetic reg, miR-21 reporter, uPA surface inh, p53 reactivator, IL2 activator)
CCC(=O)N1CCN(c2ccc(NC(=O)c3ccc([N+](=O)[O-])o3)cc2Cl)CC1	Epigenetic reg inconclusive | Parental c127i inactive | HCC4017 viab 2.81µM | H358 tox 1.41µM
C=CCn1c(SCC(=O)NCc2ccco2)nnc1-c1cccc(N(C)C)c1	none (no result: Epigenetic reg, miR-21 reporter, uPA surface inh, p53 reactivator, IL2 activator)
CC(C)CSc1nnc(CNC(=O)c2ccccn2)n1C	none (no result: Epigenetic reg, miR-21 reporter, uPA surface inh, p53 reactivator, IL2 activator)
Cc1cnc(C)c(-c2cccc3c2OC(CNC(=O)C2(c4ccc(Cl)cc4)CC2)C3)n1 (stereo not drawn)	none (no result: Epigenetic reg, miR-21 reporter, uPA surface inh, p53 reactivator, IL2 activator)
O=C(c1ccccc1F)N1CCN(c2ccc([N+](=O)[O-])c3cccnc23)CC1	none
Cc1cc(N2CCN(c3ccc([N+](=O)[O-])c4cccnc34)CC2)c2ccccc2n1	Epigenetic reg 7.08µM, PINK1 modulator inconclusive | Parental c127i 14.1µM
O=C(Nc1ccc(OC(F)F)cc1)c1nc(S(=O)(=O)Cc2ccccc2F)ncc1Cl	none (no result: Epigenetic reg, miR-21 reporter, uPA surface inh, p53 reactivator, IL2 activator)
CCOc1ccc(NC(=O)c2nc(S(=O)(=O)Cc3ccccc3F)ncc2Cl)cc1	Epigenetic reg inconclusive, miR-21 reporter inconclusive (no result: uPA surface inh, p53 reactivator, IL2 activator) | Parental c127i inactive | HCC4017 viab 7.05µM | H358 tox 7.91µM
